Data as given in ChEMBL document CHEMBL1144404, “Aminoimidazolylmethyluracil analogues as potent inhibitors of thymidine phosphorylase and their bioreductive nitroimidazolyl prodrugs” (J Med Chem, 2005).

The chains behind the UniProt entries cited, without tags or fusion partners. Where a name states a change or a piece, a line headed by the entry shows the natural chain unless it says otherwise.
UniProt P07650: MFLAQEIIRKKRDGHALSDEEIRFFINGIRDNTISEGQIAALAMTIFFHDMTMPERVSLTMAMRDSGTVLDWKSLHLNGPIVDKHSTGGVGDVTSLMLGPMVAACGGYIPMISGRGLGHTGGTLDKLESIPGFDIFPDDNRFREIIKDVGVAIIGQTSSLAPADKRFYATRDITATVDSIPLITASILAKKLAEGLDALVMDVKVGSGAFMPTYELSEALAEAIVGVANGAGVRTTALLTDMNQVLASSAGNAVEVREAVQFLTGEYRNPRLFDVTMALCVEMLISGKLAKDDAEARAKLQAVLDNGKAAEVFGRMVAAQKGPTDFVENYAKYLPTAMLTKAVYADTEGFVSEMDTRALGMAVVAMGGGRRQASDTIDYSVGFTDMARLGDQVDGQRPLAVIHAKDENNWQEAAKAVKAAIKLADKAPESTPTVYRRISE

Target: Thymidine phosphorylase (Escherichia coli K-12, UniProt P07650)
Experiment: Inhibitory concentration against thymidine phosphorylase of Escherichia coli
Procedure, shortened: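 Recombinant E. coli TP (45 nM) with 0.13 mM 5-nitro-2'-deoxyuridine in 0.1 M phosphate pH 7.4, 25 °C, 200 μL. Initial rate followed at 355 nm. Used 5-7 inhibitor concentrations, with DMSO ≤0.5% where needed.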

SMILES: O=c1[nH]c(=O)c2cc[nH]c2[nH]1 [7-DEAZAXANTHINE]
- IC50: 40 µM
